How the values were obtained:
[1] = Spectral characteristics: molar extinction coefficient and specific absorbance (UV spectrophotometry in ethyl acetate); type: physicochemical; conditions: 10 μg/ml
From the text: The calculation of the molar extinction coefficient (ε) is made from the Beer-Lambert law:
[formula] Wherein: • A=absorbance • I0=intensity of the incident light • I=intensity of the transmitted light • ε=molar extinction (or molar absorbance) coefficient in M^−1 cm^−1 • l=path length in cm • c=concentration in mol/l
The molar extinction coefficient can be expressed with respect to a given mass of the product. It thus makes it possible to be able to compare the coefficients of extinction between products for the same given quantity. This quantity is 1% by weight. The molar extinction coefficient thus becomes the specific absorbance (A1cm^1%).
It is expressed as follows:
[formula] Wherein: • A1cm^1%=specific absorbance • ε=molar extinction coefficient • M=molar mass
The spectral characteristics of the compounds in comparison with commercial filters at a concentration of 10 μg/ml are summarized in tables 2-1 and 2-2.
Procedure: The products are dissolved in ethyl acetate to a concentration of 10 μg/ml. The spectra are measured using a dual-beam spectrophotometer (Varian CARY 50 Scan) between 290 nm and 400 nm.

[2] = Spectral distribution in UVA and UVB, 290 nm to 400 nm; type: physicochemical; conditions: for Absorption peaks: range from 290 nm to 400 nm
From the text: The products tested are classified according to spectral distribution in UVA and UVB in a range from 290 nm to 400 nm. It is possible to differentiate them according to their spectral distribution: Products with a narrow spectrum: • Products absorbing in the range between 280 nm and 320 nm (UVB) • Products absorbing in the range between 320 nm and 400 nm (UVA) Products with a broad spectrum: • Products absorbing in UVB (280-320 nm) and UVA-II […] • Products covering UVB and UVA (280-400 nm).

Row | Compound | Maximum molar extinction coefficient UVA ([1]; UVA band) [M⁻¹ cm⁻¹] | Maximum specific absorbance UVA ([1]; A1cm^1%, UVA band) | Wavelength of maximum molar extinction coefficient UVA ([1]; the 'at ...' part of the cell) | Wavelength of maximum specific absorbance UVA ([1]; the 'at ...' part of the cell) [nm] | Spectral distribution (UV bands absorbed) ([2]; absorption spectra, FIGS. 1-3) | Absorption peaks [2] [nm]
1 | 1,4-bis[5,6-(4,4′-dihexyl)-diphenyl-1,2,4-triazin-3-yl]benzene [WP96] | 56000 | 638 | at 335 nm | 335 | absorb in UVB and UVA | 335
2 | Cc1ccc(-c2nnc(-c3ccc(-c4nnc(-c5ccc(C)cc5)c(-c5ccc(C)cc5)n4)cc3)nc2-c2ccc(C)cc2)cc1 [WP39, 1,4-bis[5,6-(4,4′-dimethyl)-diphenyl-1,2,4-triazin-3-yl]benzene] | – | – | – | – | – | 335
3 | CCCCCCCCCCCCc1ccc(-c2nnc(-c3ccc(-c4nnc(-c5ccc(CCCCCCCCCCCC)cc5)c(-c5ccc(CCCCCCCCCCCC)cc5)n4)cc3)nc2-c2ccc(CCCCCCCCCCCC)cc2)cc1 [WP107, 1,4-bis[5,6-bis(4-dodecylphenyl)-1,2,4-triazine-3-yl]benzene] | – | – | – | – | – | 335

Source: US7816520B2, “5,6-diphenyl-1,2,4-triazinic dimeric derivatives and the use thereof in the form of sun-protective agents” (Pierre Fabre Dermo-Cosmetique, priority 2004, dated 2010)
